Molecules are shown by their SMILES. Only a part is listed here, and it is no random draw. Some of these compounds have results that are not shown, active ones among them. Activity calls are given as the source filed them.

This assay can be described thus: E. coli growth inhibition, primary screen, OD600 (AID 1053175). To be noted: Escherichia coli growth, OD600, 23 h; hits give low values.
On to `Cc1ccc(C(=O)NCC2(N3CCCCC3)CCCCC2)cc1`, for which the OD600 absorbance is inactive: 0.674. The same measure for `COc1cc(SC)ccc1C(=O)NCC1(N(C)C)CCCCC1`: inactive: 0.648; for `CN1[C@@H]2CC[C@H]1CC(OC(=O)C(O)(c1ccccc1)c1ccccc1)C2` (stereo partly drawn): inactive: 0.683; for `O=C(NCC1(N2CCCCC2)CCCCC1)c1cc([N+](=O)[O-])ccc1Cl`: inactive: 0.667. With `COc1ccc(C(=O)NCC2(N(C)C)CCCCC2)cc1`, the OD600 absorbance was inactive: 0.67. As to `O=C(NCC1(N2CCCCC2)CCCCC1)c1cccc(Br)c1`, the OD600 absorbance is inactive: 0.67. The same measure for `CCN1CCCC(OC(=O)C2(O)c3ccccc3C=Cc3ccccc32)C1` (stereo not drawn): inactive: 0.658; for `Cc1cc(C(=O)NCC2(N3CCCCC3)CCCCC2)ccc1[N+](=O)[O-]`: inactive: 0.659. The same measure for `O=C(NCC1(N2CCCCC2)CCCCC1)c1cc(F)c(F)cc1Cl`: inactive: 0.695; for `CN(C)CCOC(=O)C(O)(c1ccccc1)C1CCCCC1` (stereo not drawn): inactive: 0.7; for `CN(C)c1ccc(C(=O)NCC2(N(C)C)CCCCC2)cc1`: inactive: 0.682.

Turning to `CN(C)C1CCCC1OC(=O)C(O)(c1ccccc1)c1ccccc1` (stereo not drawn), the OD600 absorbance was inactive: 0.682. The same measure for `Cc1ccccc1C(=O)NCC1(N2CCCCC2)CCCCC1`: inactive: 0.636.

As for `O=C(NCC1(N2CCCCC2)CCCCC1)c1cccc(Cl)c1`, the OD600 absorbance was inactive: 0.617. The same measure for `COc1ccc(Cl)cc1C(=O)NCC1(N(C)C)CCCCC1`: inactive: 0.716.

Regarding `COc1cccc(C(=O)NCC2(N3CCCCC3)CCCCC2)c1`, the OD600 absorbance is inactive: 0.708. In the case of `COc1cc(C(=O)NCC2(N(C)C)CCCCC2)c([N+](=O)[O-])cc1OC` it was inactive: 0.632; in that of `CN(C)C1(CNC(=O)c2ccc(Br)cc2)CCCCC1`, inactive: 0.663; in that of `O=C(OCCN1CCCC1)C(O)(c1ccccc1)c1ccccc1`, inactive: 0.672. In the case of `CC(C)Oc1ccc(C(=O)NCC2(N(C)C)CCCCC2)cc1` it was inactive: 0.681. In the case of `CN(C)c1cccc(C(=O)NCC2(N(C)C)CCCCC2)c1` it was inactive: 0.81; in that of `COc1ccc(Br)c(C(=O)NCC2(N3CCCCC3)CCCCC2)c1`, inactive: 0.703; in that of `O=C(OC1CN2CCC1CC2)C(CO)(c1ccccc1)c1ccccc1` (stereo not drawn), inactive: 0.625.

The values are drawn from PubChem BioAssay AID1053175 (ICCB-Longwood Screening Facility, Harvard Medical School, 2014).
